In ChEMBL document CHEMBL4765247, “Novel mouse GABA uptake inhibitors with enhanced inhibitory activity toward mGAT3/4 and their effect on pain threshold in mice” (Eur J Med Chem, 2020):

Target: T1, GABA transporter 4 (Mus musculus, UniProt P31650)
T1 sequence (P31650 whole entry): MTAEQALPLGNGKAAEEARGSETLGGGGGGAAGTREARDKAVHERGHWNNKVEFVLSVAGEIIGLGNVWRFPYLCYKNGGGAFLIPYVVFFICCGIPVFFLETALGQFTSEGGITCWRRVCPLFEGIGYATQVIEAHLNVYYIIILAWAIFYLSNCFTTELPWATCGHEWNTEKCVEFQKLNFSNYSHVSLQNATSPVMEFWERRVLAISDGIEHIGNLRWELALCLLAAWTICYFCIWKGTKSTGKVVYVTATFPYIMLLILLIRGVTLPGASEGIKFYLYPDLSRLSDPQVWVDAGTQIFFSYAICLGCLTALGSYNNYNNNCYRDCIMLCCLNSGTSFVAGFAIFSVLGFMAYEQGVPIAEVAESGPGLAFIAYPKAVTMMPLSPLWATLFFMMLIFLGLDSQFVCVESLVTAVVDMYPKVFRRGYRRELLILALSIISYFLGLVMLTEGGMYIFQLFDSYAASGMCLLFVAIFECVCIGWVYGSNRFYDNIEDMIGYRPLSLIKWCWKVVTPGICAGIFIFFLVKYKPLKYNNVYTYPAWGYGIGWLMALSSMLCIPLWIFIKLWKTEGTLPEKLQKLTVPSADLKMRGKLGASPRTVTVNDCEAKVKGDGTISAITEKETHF
Assay: Inhibition of mouse GTA4 receptor

- IC50: 33.1 µM
Compound: NCCCC(=O)O [GAMMA-AMINOBUTYRIC ACID]
